PglD inh: blocks C. jejuni PglD acetyltransferase activity. purified PglD enzyme, DTNB colorimetric CoA detection. inhibition, % at 12.5 µM. hit rate 0.098% among 360,000. AID 602405; in the data active = inhibition above about 16%, passing the limit was not always enough
ARNT-TACC3 inh: ARNT/TACC3 interaction disruption; hit rate 0.66% among 390,000; inhibition, % at 9.99 µM; AlphaScreen His-ARNT PAS-B/GST-TACC3 binding, luminescence; TACC3 fragment carries E629A point mutation; Q9Y6A5;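 active = mean inhibition of replicates at least 50% and at least half of replicates each reaching 50%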;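 also: 0% = complete ARNT plus TACC3 wells and 100% = ARNT alone without TACC3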
PDI inh: blocks human protein disulfide isomerase activity; P07237; PDI insulin aggregation turbidity, A650, 90 min; inhibition, % at 10 µM; hit rate 0.052% among 350,000; AID 588391;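 active = mean inhibition across replicates of 30% or more, whatever share of single replicates reach that level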
FGF22 binding: shifts melting point of recombinant human FGF22. activity (Tm shift, normalised), % at 9.99 µM. hit rate 1.5% among 340,000. recombinant FGF22 thermal shift, SYPRO orange fluorescence; percent of sucrose octasulfate shift, DMSO zero. Q9HCT0;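 active = mean Tm shift, scaled 0 neutral to 100 positive control, at about 1.3% or above, every replicate too, limit read from the data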
UUG fidelity: modulators of start codon recognition fidelity in yeast; AID 602363; activity score, % at 18.7 µM; S. cerevisiae UUG-firefly luciferase reporter, luminescence/redox ratio; actives 0.13% (n = 350,000);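 active = replicate mean at a twofold rise or more, about +100% in these data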;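 note: firefly luciferase made from a UUG start codon reports start codon fidelity; reporter light over untreated wells divided by growth signal over untreated wells; some hits fall short of that in this replicate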
ERp5 inh: inhibitors of human ERp5 | Q15084 | ERp5 insulin aggregation, absorbance 650 nm, 90 min | inhibition, % at 9.99 µM | hit rate 0.05% among 350,000 | AID 651711;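 active = mean replicate inhibition above about 25%, with every replicate also reaching it, limit read from the data, passing the limit was not always enough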
* hit, by the source's call; . = not tested or not shown. In the library only some 1.9% were active in any assay of this set; here they are far more common.

No.	smiles	PglD inh	ARNT-TACC3 inh	PDI inh
1	COc1ccc(C=NNC(=S)NN=Cc2ccc(OC)c(OC)c2)cc1OC	-1.1	11.0	6.7
2	C/C=C/c1ccc([C@H]2[C@@H](CO)N(C(=O)CC)[C@@H]2CNCC2CCCC2)cc1	.	.	.
3	CCCC(=O)N1CC2(CCN(C(=O)Nc3cccc(F)c3)CC2)c2c(n(C)c3cc(OC)ccc23)[C@H]1CO	.	.	.
4	Fc1ccc(NC(=S)NN=Cc2ccccc2Cl)cc1	-3.4	-1.1	17.7
5	O=C(N/N=C/c1ccccc1Cl)c1ccc(F)cc1	4.2	-5.4	-1.4
6	COc1ccccc1NC(=S)N/N=C/c1ccc(O)cc1	.	9.1	-4.5
7	Oc1ccccc1/C=N/NC(=S)NC1CC2C=CC1C2 (stereo not given)	.	63.7*	-2.7
8	N#CCC(=O)N/N=C/c1ccccc1Cl	.	.	17.3
9	Oc1ccccc1C=NNC(=S)NC1CC2C=CC1C2 (stereo not given)	0.4	.	9.1
10	COc1ccc(NC(=O)N(C)C[C@@H]2Oc3ncc(C#CCC(C)C)cc3C(=O)N([C@@H](C)CO)C[C@@H]2C)cc1	1.9	2.0	.
11	CC(=O)c1cccc(NC(=O)C(=O)Nc2cccc3ccccc23)c1	.	-1.9	-4.4
12	O=C(N[C@H]1C=C[C@H](CC(=O)N2CCOCC2)O[C@H]1CO)c1ccccn1	2.7	-10.7	.

No.	FGF22 binding	UUG fidelity	ERp5 inh
1	-0.5	-37.9	1.2
2	.	.	-2.4
3	0.0	.	.
4	43.2*	-9.4	-4.1
5	.	-14.8	.
6	1.5*	.	-2.4
7	0.1	.	0.3
8	43.7*	.	4.4
9	0.1	-31.1	12.5
10	-0.4	13.3	-8.7
11	43.4*	.	6.5
12	-0.7	-11.2	1.5

Next part
No.	smiles	PglD inh	ARNT-TACC3 inh	PDI inh
13	O=c1c2ccccc2c(/C=N/c2n[nH]c(CCCO)n2)c(O)n1-c1ccccc1Cl	.	.	-6.5
14	O=C(N/N=C/c1c(O)n(-c2ccccc2Cl)c(=O)c2ccccc12)C1COc2ccccc2O1 (stereo not given)	.	-3.4	5.0
15	Clc1cccc(Cc2c(-c3cccc(Br)c3)nc3c4ccccc4ccn23)c1	.	.	.
16	Clc1ccc(-c2nc3c4ccccc4ccn3c2Cc2cccc(Cl)c2)cc1	.	.	.
17	O=C(C[n+]1ccccc1)N/N=C/c1cc(Br)ccc1F	3.5	.	0.9
18	O=C(C[n+]1ccccc1)N/N=C/c1cc(Br)cc(Br)c1O	-2.0	64.2*	12.6
19	COc1ccc(S(=O)(=O)N(C)C[C@@H]2OCCCC[C@@H](C)Oc3ccc(NC(=O)CCC(F)(F)F)cc3C(=O)N([C@H](C)CO)C[C@@H]2C)cc1	-0.3	-1.5	.
20	CC1(C)Cc2ccccc2C(C(Cc2ccccc2)C(N)=O)=N1 (stereo not given)	0.4	-0.2	4.6
21	CC(=O)CC1=NC(C)(C)Cc2ccccc21	.	-4.1	1.1
22	CCOC(=O)C1CCN(Cc2ccccc2C(F)(F)F)CC1	5.0	-30.9	-4.0
23	CCOC(=O)C1CCN(Cc2ccc(O)c3ncccc23)CC1	-3.8	69.3*	8.9
24	CCc1ccc(-c2cn3c(n2)SCC3)cc1	-2.4	-23.1	0.5

No.	FGF22 binding	UUG fidelity	ERp5 inh
13	43.0*	.	-1.5
14	.	.	.
15	43.3*	.	-3.6
16	-0.1	.	-7.4
17	0.3	-11.4	-1.6
18	.	-26.5	.
19	-0.4	-8.0	-3.7
20	43.0*	1.2	-2.5
21	0.4	.	-1.3
22	.	1.9	.
23	.	-23.4	.
24	43.0*	-23.8	-3.4

Next part.
No.	smiles	PglD inh	ARNT-TACC3 inh	PDI inh
25	O=C(CSc1nnc(-c2ccco2)o1)N1CCN(c2ccccc2)CC1	.	30.3	0.8
26	Cc1nnc(SCC(=O)N2CCN(C(=O)c3ccco3)CC2)n1-c1ccccc1	.	-4.6	-5.1
27	O=C(C[C@@H]1C=C[C@H](NC(=O)C2CC2)[C@@H](CO)O1)NCCCN1CCOCC1	1.1	-0.1	.
28	COc1ccc(/C=C/C(=O)NC(=S)NNC(=O)c2cnccn2)cc1	.	61.4*	-9.5
29	O=C(/C=C/c1ccc(F)cc1)NC(=S)NNC(=O)c1cnccn1	.	63.9*	5.0
30	COc1ccc(/C=C/C(=O)NC(=S)NNC(=O)c2cccnc2)cc1	.	.	2.1
31	O=C(NNC(=S)NC(=O)c1cccnc1)c1ccc(F)cc1	1.2	28.3	15.2
32	O=C(NC(=S)NNC(=O)c1cnccn1)c1ccc(F)cc1	.	67.7*	-2.9
33	Cc1cc(=O)n(C)c2ccccc12	.	.	-0.4
34	COc1cc(=O)n(C)c2ccccc12	1.3	-3.6	-0.3
35	COc1ccc(-c2ccc(C(c3c(C)[nH][nH]c3=O)c3c(C)[nH][nH]c3=O)o2)c([N+](=O)[O-])c1	.	4.2	2.7
36	Cc1[nH][nH]c(=O)c1C(c1ccc(-c2ccc(Cl)c(Cl)c2)o1)c1c(C)[nH][nH]c1=O	1.0	61.3*	-2.1

No.	FGF22 binding	UUG fidelity	ERp5 inh
25	43.0*	.	3.8
26	43.5*	.	-4.9
27	0.3	-15.2	0.9
28	0.1	.	4.7
29	-0.1	.	-4.2
30	.	.	.
31	0.0	-28.4	3.9
32	-0.2	.	5.9
33	43.4*	.	-3.0
34	0.2	-10.2	6.1
35	0.2	.	4.1
36	.	-30.4	.

Next part.
No.	smiles	PglD inh	ARNT-TACC3 inh	PDI inh
37	COc1cccc(NC(=O)CN2C(=O)NC(CCc3ccccc3)C2=O)c1 (stereo not given)	0.5	-4.4	-2.0
38	O=C1NC(CCc2ccccc2)C(=O)N1CCOc1cccc(Br)c1 (stereo not given)	5.1	0.6	-4.5
39	CCCNC(=O)CN1C(=O)NC(CCc2ccccc2)C1=O (stereo not given)	.	-1.3	3.1
40	CCCCNC(=O)CN1C(=O)NC(CCc2ccccc2)C1=O (stereo not given)	.	-6.1	5.8
41	O=C(C[C@H]1CC[C@@H](NC(=O)C2CCC2)[C@H](CO)O1)NC1CCCCC1	0.0	7.3	.
42	CC(NNC(=S)N1CCN(c2ccccn2)CC1)c1nccc2ccccc12 (stereo not given)	.	63.4*	-5.9
43	CCNC(=S)N1CCN(c2ccccn2)CC1	.	-2.1	7.3
44	O=S1(=O)Cc2cc3ccccc3cc2C1	.	2.8	-7.6
45	Nc1ccc2cc3ccccc3cc2c1	1.8	.	.
46	Cc1ccc(O)c(CNc2cccc3cccnc23)c1	.	37.2	0.0
47	Oc1c(Br)cc(Br)cc1CNc1cccc2cccnc12	8.5	113.3*	-2.0
48	Oc1ccc(Br)cc1CNc1cccc2cccnc12	-2.7	49.3*	-3.3

No.	FGF22 binding	UUG fidelity	ERp5 inh
37	0.1	-15.5	-5.5
38	43.0*	-7.9	-5.6
39	0.1	.	4.4
40	43.0*	.	8.2
41	-0.4	23.9	-2.4
42	-0.6	.	0.8
43	-0.2	.	-2.7
44	43.0*	.	8.0
45	0.2	-9.5	1.7
46	-0.1	.	1.9
47	-0.1	2.0	-2.1
48	-0.1	-17.4	0.8

One compound at a time, as listed above. Order of screens: PglD inh	ARNT-TACC3 inh	PDI inh	FGF22 binding	UUG fidelity	ERp5 inh
COc1ccccc1NC(=S)N/N=C/c1ccc(O)cc1 is listed as .	9.1	-4.5	1.5*	.	-2.4
CC(NNC(=S)N1CCN(c2ccccn2)CC1)c1nccc2ccccc12 (stereo not given) is listed as .	63.4*	-5.9	-0.6	.	0.8
Clc1ccc(-c2nc3c4ccccc4ccn3c2Cc2cccc(Cl)c2)cc1 is listed as .	.	.	-0.1	.	-7.4

Continued:
No.	smiles	PglD inh	ARNT-TACC3 inh	PDI inh
49	COc1cccc(NC(=O)C(c2ccccc2)N2CCCC2)c1 (stereo not given)	.	-15.5	-3.7
50	COc1cccc(NC(=O)CCC(=O)Nc2cccc(OC)c2)c1	6.6	-3.6	-12.1
51	C=C1C(C(=O)Nc2cccc(OC)c2)C1C(=O)Nc1cccc(OC)c1 (stereo not given)	.	-2.1	19.6
52	O=C1NC[C@H](CCCCN2C[C@H](Cc3ccccc3)N(CCC3CCCCC3)C(=O)C2=O)N(CCc2ccccc2)C1=O	.	.	.
53	CN(C)Cc1ccccc1CNC(=O)c1ccc(Cl)c(S(=O)(=O)NC2CC2)c1	2.2	.	7.5
54	CN(C)Cc1ccc(CNC(=O)c2ccc(Cl)c(S(=O)(=O)NC3CC3)c2)cc1	-0.6	5.1	1.6

No.	FGF22 binding	UUG fidelity	ERp5 inh
49	43.2*	.	-7.2
50	.	-12.1	.
51	44.2*	-10.7	-2.7
52	8.8*	.	1.4
53	43.3*	-15.7	-1.7
54	-0.1	-17.5	-0.3

Results in sequence from the list.
Entries 49–54 in UUG fidelity: ., -12.1, -10.7, ., -15.7, -17.5
Entries 49–54 in FGF22 binding: 43.2*, ., 44.2*, 8.8*, 43.3*, -0.1
